Assay results taken from patent US9758483B2, “Pyridone amides as modulators of sodium channels” (VERTEX PHARMACEUTICALS INCORPORATED, priority 2013, dated 2017).
pIC50: −log10 of the molar value.

By UniProt entry, the sequences of proteins in these tests, tags left out.
UniProt Q9Y5Y9, whole entry: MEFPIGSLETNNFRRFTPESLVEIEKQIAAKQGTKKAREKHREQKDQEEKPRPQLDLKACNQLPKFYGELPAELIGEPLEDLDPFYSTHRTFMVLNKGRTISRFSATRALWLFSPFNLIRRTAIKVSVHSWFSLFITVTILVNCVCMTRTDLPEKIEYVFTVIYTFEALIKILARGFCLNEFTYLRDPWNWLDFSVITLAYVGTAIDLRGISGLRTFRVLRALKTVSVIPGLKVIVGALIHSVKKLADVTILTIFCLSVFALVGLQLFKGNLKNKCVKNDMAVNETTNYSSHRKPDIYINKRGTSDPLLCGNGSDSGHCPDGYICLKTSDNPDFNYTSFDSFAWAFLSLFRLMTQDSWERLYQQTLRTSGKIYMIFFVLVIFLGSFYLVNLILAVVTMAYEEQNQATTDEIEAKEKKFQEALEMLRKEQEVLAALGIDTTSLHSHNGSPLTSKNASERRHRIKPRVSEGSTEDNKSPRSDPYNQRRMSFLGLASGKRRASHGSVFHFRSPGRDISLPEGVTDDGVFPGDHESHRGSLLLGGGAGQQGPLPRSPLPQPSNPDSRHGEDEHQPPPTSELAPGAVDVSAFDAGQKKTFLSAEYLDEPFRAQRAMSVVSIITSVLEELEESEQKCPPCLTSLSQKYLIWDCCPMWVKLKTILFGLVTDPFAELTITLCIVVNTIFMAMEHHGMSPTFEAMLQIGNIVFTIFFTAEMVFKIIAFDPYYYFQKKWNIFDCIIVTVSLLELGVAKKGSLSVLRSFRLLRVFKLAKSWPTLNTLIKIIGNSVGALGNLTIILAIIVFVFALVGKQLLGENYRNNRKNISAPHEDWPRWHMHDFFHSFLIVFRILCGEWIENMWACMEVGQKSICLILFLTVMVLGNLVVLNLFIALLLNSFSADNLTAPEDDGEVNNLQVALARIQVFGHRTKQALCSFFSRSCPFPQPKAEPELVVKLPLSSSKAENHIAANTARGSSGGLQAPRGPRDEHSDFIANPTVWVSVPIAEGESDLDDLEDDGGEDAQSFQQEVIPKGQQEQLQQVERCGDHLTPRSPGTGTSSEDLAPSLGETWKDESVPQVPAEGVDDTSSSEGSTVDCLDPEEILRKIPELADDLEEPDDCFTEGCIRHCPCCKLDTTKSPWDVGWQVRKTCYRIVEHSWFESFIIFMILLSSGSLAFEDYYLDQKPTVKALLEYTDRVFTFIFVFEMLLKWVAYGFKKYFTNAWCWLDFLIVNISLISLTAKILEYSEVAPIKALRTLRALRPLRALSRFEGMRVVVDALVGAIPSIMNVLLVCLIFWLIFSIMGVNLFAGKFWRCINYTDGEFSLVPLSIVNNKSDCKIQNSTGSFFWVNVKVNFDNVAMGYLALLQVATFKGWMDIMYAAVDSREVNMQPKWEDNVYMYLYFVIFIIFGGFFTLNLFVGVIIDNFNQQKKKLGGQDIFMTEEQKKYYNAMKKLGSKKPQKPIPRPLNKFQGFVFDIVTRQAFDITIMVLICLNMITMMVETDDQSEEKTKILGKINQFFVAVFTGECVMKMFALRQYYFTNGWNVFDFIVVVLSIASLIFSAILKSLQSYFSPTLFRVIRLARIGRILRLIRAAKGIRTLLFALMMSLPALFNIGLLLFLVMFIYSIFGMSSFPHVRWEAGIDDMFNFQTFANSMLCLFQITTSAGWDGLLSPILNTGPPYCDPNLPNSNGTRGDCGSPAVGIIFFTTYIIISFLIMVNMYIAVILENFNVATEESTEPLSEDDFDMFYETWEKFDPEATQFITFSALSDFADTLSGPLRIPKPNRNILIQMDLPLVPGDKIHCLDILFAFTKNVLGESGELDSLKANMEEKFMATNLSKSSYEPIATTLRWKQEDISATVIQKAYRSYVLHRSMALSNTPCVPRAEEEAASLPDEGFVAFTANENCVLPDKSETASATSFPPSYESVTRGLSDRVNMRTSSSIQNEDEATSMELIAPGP

Target: human Nav1.8 (Homo sapiens (Human), UniProt Q9Y5Y9)
Experiment: E-VIPR optical membrane potential assay with electrical stimulation
Format: cell-based
Conditions: HEK cells expressing human Nav1.8
Text: Sodium channels are voltage-dependent proteins that can be activated by inducing membrane voltage changes by applying electric fields. […] The instrument comprises a microtiter plate handler, an optical system for exciting the coumarin dye while simultaneously recording the coumarin and oxonol emissions, a waveform generator, a current- or voltage-controlled amplifier, and a device for inserting electrodes in well. Under integrated computer control, this instrument passes user-programmed electrical stimulus protocols to cells within the wells of the microtiter plate.
24 hours before the assay on E-VIPR, HEK cells expressing human Nav1.8 were seeded in 384-well poly-lysine coated plates at 15,000-20,000 cells per well. […] Cells were grown in vented cap flasks, in 90% humidity and 5% CO2.
To make the solution added volume of 10% Pluronic F127 stock equal to volumes of CC2-DMPE+DiSBAC6(3). […]
7) Read Plate on E-VIPR. […]
Data was analyzed and reported as normalized ratios of emission intensities measured in the 460 nm and 580 nm channels. […]
Control responses were obtained by performing assays in the presence of a compound with the desired properties (positive control), such as tetracaine, and in the absence of pharmacological agents (negative control). Responses to the negative (N) and positive (P) controls were calculated as above. […]

Work on “2-(4-fluoro-2-methylphenoxy)-N-(6-oxo-1,6-dihydropyridin-3-yl)-5-(trifluoromethyl)benzamide [Compound 106]” yielded a pIC50 of 7.00.
